Results as given in US5593656A, “Metal-binding targeted polypeptide constructs” (Cytogen Corporation, priority 1995, dated 1997).

Tested on: HT-29 colon carcinoma xenograft tumors
Conditions: Tc-99m labeled, i.v.; for Average accumulation in HT-29 tumors (tumor localization percentage): 22 hours after injection; for Organ to Blood Ratio, Tumor (tumor:blood ratio) / Percent Of Injected Dose, Tumor: HT-29 tumor; for Percent Of Injected Dose, Blood / Percent Of Injected Dose, Kidney-L / Percent Of Injected Dose, Kidney-R / Percent Of Injected Dose, Liver / Percent Of Injected Dose, Lung / Percent Of Injected Dose, Muscle / Percent Of Injected Dose, Pancreas / Percent Of Injected Dose, Spleen: per gram of organ; for Percent Of Injected Dose, Tumor: per gram

Substance | Organ to Blood Ratio, Blood (3 HR) | Organ to Blood Ratio, Kidney-L (3 HR) | Organ to Blood Ratio, Kidney-R (3 HR) | Organ to Blood Ratio, Liver (3 HR) | Organ to Blood Ratio, Lung (3 HR) | Organ to Blood Ratio, Muscle (3 HR) | Organ to Blood Ratio, Pancreas (3 HR) | Organ to Blood Ratio, Spleen (3 HR) | Organ to Blood Ratio, Blood (22 HR) | Organ to Blood Ratio, Kidney-L (22 HR) | Organ to Blood Ratio, Kidney-R (22 HR) | Organ to Blood Ratio, Liver (22 HR) | Organ to Blood Ratio, Lung (22 HR) | Organ to Blood Ratio, Muscle (22 HR) | Organ to Blood Ratio, Pancreas (22 HR) | Organ to Blood Ratio, Spleen (22 HR) | Average accumulation in HT-29 tumors (tumor localization percentage) [% ID/g] | Organ to Blood Ratio, Tumor (tumor:blood ratio) (3 HR) | Organ to Blood Ratio, Tumor (tumor:blood ratio) (22 HR) | Percent Of Injected Dose, Blood (3 HR) [%] | also measured
Benzoic acid bis-thiosemicarbazide derived from N-acetyl-Neuromedin C-hydrazide [Compound 6] | 1.00 | 9.24 | 8.51 | 0.76 | 0.87 | 0.15 | 0.25 | 0.72 | 1.00 | 25.44 | 24.22 | 1.45 | 3.80 | 0.45 | 0.70 | 2.40 | 0.38 | 0.62 | 2.25 | 1.30 | Percent Of Injected Dose, Kidney-L (3 HR): 11.34%; Percent Of Injected Dose, Kidney-R (3 HR): 10.24%; Percent Of Injected Dose, Liver (3 HR): 0.92%; Percent Of Injected Dose, Lung (3 HR): 1.08%; Percent Of Injected Dose, Muscle (3 HR): 0.19%; Percent Of Injected Dose, Pancreas (3 HR): 0.32%; Percent Of Injected Dose, Spleen (3 HR): 0.86%; Percent Of Injected Dose, Blood (22 HR): 0.24%; Percent Of Injected Dose, Kidney-L (22 HR): 6.02%; Percent Of Injected Dose, Kidney-R (22 HR): 5.73%; Percent Of Injected Dose, Liver (22 HR): 0.34%; Percent Of Injected Dose, Lung (22 HR): 0.93%; Percent Of Injected Dose, Muscle (22 HR): 0.11%; Percent Of Injected Dose, Pancreas (22 HR): 0.17%; Percent Of Injected Dose, Spleen (22 HR): 0.59%; Percent Of Injected Dose, Tumor (3 HR): 0.78%; Percent Of Injected Dose, Tumor (22 HR): 0.54%
Benzoic acid bis-thiourea derived from Neuromedin-C [Compound 3] | 1.00 | 7.01 | 6.86 | 0.42 | 0.76 | 0.14 | 0.23 | 0.34 | 1.00 | 9.73 | 9.84 | 0.61 | 1.07 | 0.22 | 0.50 | 0.69 | 0.51 | 0.71 | 2.0 | 1.17 | Percent Of Injected Dose, Kidney-L (3 HR): 8.25%; Percent Of Injected Dose, Kidney-R (3 HR): 8.03%; Percent Of Injected Dose, Liver (3 HR): 0.49%; Percent Of Injected Dose, Lung (3 HR): 0.90%; Percent Of Injected Dose, Muscle (3 HR): 0.16%; Percent Of Injected Dose, Pancreas (3 HR): 0.27%; Percent Of Injected Dose, Spleen (3 HR): 0.40%; Percent Of Injected Dose, Blood (22 HR): 0.26%; Percent Of Injected Dose, Kidney-L (22 HR): 2.51%; Percent Of Injected Dose, Kidney-R (22 HR): 2.54%; Percent Of Injected Dose, Liver (22 HR): 0.16%; Percent Of Injected Dose, Lung (22 HR): 0.27%; Percent Of Injected Dose, Muscle (22 HR): 0.06%; Percent Of Injected Dose, Pancreas (22 HR): 0.13%; Percent Of Injected Dose, Spleen (22 HR): 0.18%; Percent Of Injected Dose, Tumor (3 HR): 0.83%; Percent Of Injected Dose, Tumor (22 HR): 0.51%

Where two headings read alike, the source gives them in different places.
